Measurements as given in PubChem BioAssay AID504444 (National Center for Advancing Translational Sciences (NCATS), 2011).
The list shows a part of the results, in another mix than the full data. Results filed as inconclusive are left out. Active and inactive are the calls of the source. Calls come from the whole dose curve; as a rule, active = well fitted inhibition curve with a large enough effect; inconclusive = small, poorly fitted or top-dose-only effect, or effect the other way; inactive = flat fitted curve, though single readings scatter.

Assay: Nrf2 qHTS screen for inhibitors; note: nearly all actives have a fitted effect of over 60% in size
Conditions: A549 ARE-Fluc reporter, luciferase luminescence, 18-24 h
Text: NIH Molecular Libraries Probe Production Network [MLPCN]
NIH Chemical Genomics Center [NCGC]
Assay Provider: Shyam Biswal, Johns Hopkins University
Nrf2 is a transcription factor that maintains cellular redox homoestasis and protects cells from xenobiotics. Nrf2 binds to the antioxidant response element (ARE) to induce gene expression of a broad spectrum of genes that encode for antioxidants. […] Finding a small molecule that act as an inhibitor of Nrf2 function would represent a novel therapeutic target that could lead to improvement in survival of patients undergoing chemo- and/or radio- therapy.
This is the Nrf2 activity measured in the luminescent read.
1. […]
A concentration-response assay was performed with A549 ARE_Fluc cells which are suspended in 5% FBS OPTI-MEM. […] The plate is then incubated at 37deg C at 5% CO2 for 30 minutes before they are read on the ViewLux (Perkin Elmer) for a fluorescent read Ex=405(10)/Em=525(10) for a 3 second exposure, 2x binning, and high gain. […] Afterwards another ViewLux read is performed using the clear filter to get a luminescent read with the settings of 40 second exposure, 2x binning, and high gain. Cytotoxicity is assessed through the first fluorescent read and then biochemical activity against Nrf2 is measured in the luminescent read.
Potency is the fitted concentration of half-maximal effect.

SMILES	Potency
N=C(N)c1ccc(OCCCCCOc2ccc(C(=N)N)cc2)cc1	active: 7.31 µM
CC[n+]1c(/C=C/N(C)c2ccccc2)oc2ccccc21	active: 7.31 µM
